{
  "sequences": {"note": "The chains behind the UniProt entries cited, without tags or fusion partners. Residues count along the entry.", "UniProt Q14416, 19-872 limits assumed": "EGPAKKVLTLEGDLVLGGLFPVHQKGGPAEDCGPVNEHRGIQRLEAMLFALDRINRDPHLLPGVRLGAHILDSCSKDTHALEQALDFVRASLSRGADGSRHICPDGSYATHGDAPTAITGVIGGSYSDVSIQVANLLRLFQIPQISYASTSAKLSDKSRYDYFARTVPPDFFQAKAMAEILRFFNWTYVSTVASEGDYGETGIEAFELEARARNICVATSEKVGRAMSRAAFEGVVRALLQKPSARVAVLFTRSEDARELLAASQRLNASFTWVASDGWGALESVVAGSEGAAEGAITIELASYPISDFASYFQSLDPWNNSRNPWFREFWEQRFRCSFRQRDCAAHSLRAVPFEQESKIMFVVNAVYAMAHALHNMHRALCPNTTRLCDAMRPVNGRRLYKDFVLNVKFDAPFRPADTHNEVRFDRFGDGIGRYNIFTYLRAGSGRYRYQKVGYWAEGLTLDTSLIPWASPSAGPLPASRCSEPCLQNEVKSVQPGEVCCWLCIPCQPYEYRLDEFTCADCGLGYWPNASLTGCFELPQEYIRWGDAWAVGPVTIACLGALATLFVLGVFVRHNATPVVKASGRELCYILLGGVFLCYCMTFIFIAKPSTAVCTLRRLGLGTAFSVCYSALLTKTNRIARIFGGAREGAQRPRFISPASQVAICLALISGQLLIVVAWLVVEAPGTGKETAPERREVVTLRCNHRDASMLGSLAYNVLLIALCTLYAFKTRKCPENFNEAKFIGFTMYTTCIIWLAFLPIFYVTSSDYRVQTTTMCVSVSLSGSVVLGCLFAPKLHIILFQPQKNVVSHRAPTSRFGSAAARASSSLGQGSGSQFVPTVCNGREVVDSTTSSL"},
  "source": "patent US20080280933A1",
  "about": "“BENZIMIDAZOLYL COMPOUNDS” (priority 2006, published 2008)",
  "molecular_target": "mGluR2 receptor (metabotropic glutamate receptor 2) (Homo sapiens, UniProt Q14416)",
  "assay": "mGluR2 Potentiator Screen, FLIPR, EC10-EC20 glutamate challenge",
  "description": "Procedure for mGluR2 Potentiator Screen NLB Methods EC10-EC20 Challenge Cell Culture and Plating:\nCells used for this screen are HEK cells stably transfected with the mGluR2 receptor (metabotropic glutamate receptor 2) and the Gα15 G protein. Clones were identified by functional activity (FLIPR). Cells are grown in growth media containing: DMEM High Glucose with Glutamine and Na Pyruvate (GIBCO), 10% (v/v) Heat inactivate FBS (GIBCO) G418 500 ug/ml (from 50 mg/ml stock) (GIBCO) and Blasticidin 3 ug/ml (from 5 mg/ml stock made in H2O) (Invitrogen).\n2 days before the assay cell are trypsinized with 0.25% trysin/EDTA (GIBCO), spun down at 1000 rpm for 5 minutes, resuspended in growth media and plated on polystyrene 384 well black wall/clear bottom poly-D-lysine coated plates at a density of approximately 18,000 cells/well in a volume of 50 μL per well. One day before the assay the growth media is removed from the plates by flicking and replaced with media containing DMEM High Glucose without Glutamine and Na Pyruvate (GIBCO) and 10% (v/v) dialyzed FBS (GIBCO). The reason for the removal of glutamine the day before the assay is to minimize the amount of glutamate that will be present during the assay, as endogenous glutarnate released from the cells can reduce the fluorescent response and interfere with the FLIPR screen.\nFLIPR Methods and Data Analysis:\nOn the day of the assay, the FLIPR assay is performed using the following methods:\nThe pH is adjusted to 7.4 with 1M NaOH. Prepare a 2 mM (approx.) stock solution of Fluo-4.am (Molecular Probes) dye in DMSO −22 μl DMSO per 50 ug vial (440 μL per 1 mg vial). Make a 1 mM (approx.) flou-4, PA working solution per vial by adding 22 μl of 20% pluronic acid (PA) (Molecular Probes) in DMSO to each 50 ug vial (440 μL per 1 mg vial). Prepare a 250 mM Probenecid (Sigma) stock solution by dissolving 0.71 g into 5 ml 1N NaOH and 5 ml assay buffer (for each liter of assay wash buffer). Make 4 uM (approx.) dye incubation media by adding 2.50 ug vials per 11 ml DMEM high glucose without glutamine (220 ml per 1 mg vial). Add 110 μL probenecid stock per 11 ml (2.5 mM final [concentration]). To the dye media add 3 units/ml of glutamic-pyruvic transaminase (GPT, Sigma) and 3 mM Na Pyruvate. The assay has worked with dye concentrations from 2 uM to 8 uM dye as well. To the assay buffer from drug preparation, add 1.83 mls DMSO and 400 μL. 15.8% P104 (from New Leads biology) per liter for final concentrations of 0.18% DMSO and 0.006% P104. To the assay buffer for cell washing, add probenecid in the same manner and concentration that was used for the dye media.\nRemove growth media from cell plates by flicking. Add 50 μl/well dye solution. Incubate 1 hour at 37° C. and 5% CO2. Remove dye solution and wash 3 times with assay buffer+probenecid (100 μl probenecid stock per 10 ml buffer), leaving 30 μL/well assay buffer. Wait at least 10-15 minutes. Compounds and agonist challenge additions are performed with the FLIPR. The in addition is for test compounds, which are added as 15 μL of 4× [concentration] of potentiator. The second 2nd addition is 15 μL of 4× [concentration] of agonist or challenge. This achieves 1× concentration of all compounds only after 2nd addition. The 1st and 2nd additions are performed separately using the FLIPR, which give 2 different data files. Compounds are pretreated at least 30 minutes before agonist addition.\nResults are analyzed by dividing the peak fluorescent value of the FLIPR response by the […] to achieve a ratio response. The ratios are then analyzed by curve fitting programs. Since potent compounds can give an inverted U dose response curve (due to effects on endogenous glutamate by the potentiators) points are deleted at concentrations higher than the concentration that gives the maximum effect. Maximum values for dose response curves (forced fitting) are derived from standards on the plate.\nCompound Preparation and Glutamate Challenge: […]",
  "key": {"[1]": {"conditions": "mGluR2 potentiator screen, Table 7"}},
  "note": "Where two headings read alike, the source gives them in different places.",
  "data": [
    {"molecule": "CC(=O)OCC(=O)N1CC2(CCN(Cc3nc4ccccc4n3C)CC2)c2cc(Cl)ccc21", "values": [
      {"measurement": "EC50", "result": "> 4430", "unit": "nM"}
    ]},
    {"molecule": "CCCOc1ccc(Cl)cc1C1CCN(Cc2nc3ccccc3n2C2CC2)CC1", "values": [
      {"measurement": "EC50", "setting": "[1]", "result": 731, "unit": "nM"}
    ]},
    {"molecule": "Cn1c(CN2CCC3(c4ccc(F)cc4)CC3C2)nc2ccccc21", "note": "(centres unmarked)", "values": [
      {"measurement": "EC50", "result": 106, "unit": "nM"}
    ]},
    {"molecule": "C#CCOc1ccccc1C1CCN(Cc2nc3c(Br)cccc3n2C)CC1", "values": [
      {"measurement": "EC50", "setting": "[1]", "result": 7700, "unit": "nM"}
    ]},
    {"molecule": "COc1ccc2c(c1)CCCC21CCN(Cc2nc3ccccc3n2C)CC1", "values": [
      {"measurement": "EC50", "result": 2680, "unit": "nM"}
    ]},
    {"molecule": "Cc1cccc(C2CCN(Cc3nc4ccccc4n3C)CC2)c1", "values": [
      {"measurement": "EC50", "result": 51.5, "unit": "nM"}
    ]},
    {"molecule": "CC(=O)OC(C)(C)C(=O)N1CC2(CCN(Cc3nc4ccccc4n3C)CC2)c2cc(Cl)ccc21", "values": [
      {"measurement": "EC50", "result": 3410, "unit": "nM"}
    ]},
    {"molecule": "Cc1ccccc1C1(F)CCN(Cc2nc3ccccc3n2C)CC1", "values": [
      {"measurement": "EC50", "result": 252, "unit": "nM"}
    ]}
  ]
}
